Laboratory results reported in patent US6458758B1, “Compositions and methods utilizing nitroxides in combination with biocompatible macromolecules” (Synzyme Technologies, Inc., priority 1993, dated 2002).

Assays:
[1] = system: Chinese Hamster V79 cells; assay: Radioprotection of Chinese Hamster V79 cells at 12 Gray; assay type: cell-based; details: 12 Gray x-ray; cells pretreated 10 minutes prior to irradiation
Description: FIG. 16 is a bar graph showing the surviving fraction of Chinese Hamster V79 cells at 12 Gray radiation. The V79 cells were pretreated 10 minutes prior to x-ray irradiation.
Based on a radiation dosage scale developed by the National Cancer Institute, chinese hamster cell cultures are exposed to ionizing radiation in the presence of radioprotective chemical agents.

CD-1 mice = assay: Focal cerebral ischemia (MCA/CCA occlusion 1 h) and reperfusion in CD-1 mice; assay type: in vivo; details: for infarct volume / % infarction: mean±SEM
Description: The animals were subjected to middle cerebral artery (MCA) occlusion and reperfusion by the method of Yang et al. (Stroke 25: 165-170, 1994) with occlusion of the ipsilateral common carotid artery (CCA). PNA or a control solution of human serum albumin was injected intravenously just before one hour of MCA occlusion (pre-ischemia group) or just after reperfusion following one hour of ischemia (post-reperfusion group). The dose was 0.5% of body weight, v/w). Body temperature was maintained within the range 36.5-37.5° C. during the surgery. Mean arterial pressure and blood gasses were measured in four animals to insure a valid control group.
Twenty-four hours after reperfusion, animals were assessed for neurological deficit as described by Bederson et al. (Stroke 17: 472-476, 1986). Neurological deficits were scored on the following scale: 0+no observable deficit, 1+failure to extend right forepaw, 2+circling to the right, 3+falling to the right, 4+cannot walk spontaneously. Following the neurological assessment, the animals were decapitated and the brains rapidly removed and frozen for histological analysis. Coronal sections 20 Mm thick were made at intervals of 0.5 mm from the anterior tip of the brain and strained with cresyl violet in order to evaluate infarction (n+7 animals). Infarct volume was calculated by integrating infarct size (measured in mm^2 in the serial sections.

mouse = assay: Protection against stroke injury in the mouse (MCA suture occlusion, PNA 1% v/w twice); assay type: in vivo
Text: Chan, P. H., C. J. Epstein, H. Kinouchi, H. Kamii, G. Yang, S. F. Chen, J. Gafni, and E. Carlson (1994). SOD-1 transgenic mice as a model for studies of neuroprotection in stroke and brain trauma. Ann. N.Y. Acad. Sci. 738:93-103. Chan, P. H., C. J. Epstein, H. Kinouchi, S. Imaizumi, E. Carlson, and S. F. Chen (1993). Role of superoxide dismutase in ischemic brain injury: Reduction of edema and infarction in transgenic mice following focal cerebral ischemia. In Molecular Mechanisms of Ischemic Brain Damage, K. Kogure and B. K. Siesjo, eds. Amsterdam: Elsevier. pp. 97-104. Kinouchi, H., C. J. Epstein, T. Mizui, E. Carlson, S. F. Chen and P. H. Chan (1991). Attenuation of focal cerebral ischemic injury in transgenic mice overexpressing CuZn superoxide dismutase. Proc. Natl. Acad. Sci. USA 88:11158-11162. Imaizumi, S., V. Woolworth, and R. A. Fishman (1990). Liposome-encapsulated superoxide dismutase reduces cerebral infarction in cerebral ischemia in rats. Stroke 21: 1312-1317. Liu, T. H., J. S. Beckman, B. A. Freeman, E. L. Hogan, and C. Y. Hsu (1989). Polyethylene glycol-conjugated superoxide dismutase and catalase reduce ischemic brain injury. Am. J. Physiol. 256: H586-H593. Chan, P. H., S. Longar, and R. A. Fishman (1987). Protective effects of liposome-entrapped superoxide dismutase on post-traumatic brain edema. Ann. Neurol. 21: 540-547. […] Ten minutes later, the middle coronary artery (MCA) was occluded by luminal blockade using a nylon suture. After one hour of ischemia, reperfusion, and after 24 hours of reperfusion, animals were assessed for neurological function and sacrificed for histological measurement of infarction and edema. […] In contrast, in the brain of the treated mouse, the involved hemisphere is normal and symmetric with the contralateral one in terms of size, shape, and staining density. Serial sections as shown in FIG. 34C indicate the anatomic distribution of ischemic injury throughout the brain of a representative control animal, and the normal appearance of the brain of a representative treated animal. […] The following table summarizes data on the reduction in neurological deficit, percent infarction (calculated from infarction areas in serial sections), and hemisphere enlargement in the treated animals.

Sprague-Dawley rats = assay: Glycerol-induced rhabdomyolysis renal injury survival study; assay type: in vivo, rat; details: albumin as control, 1.25 ml iv twice
Description: In an animal model of rhabdomyolysis, a bolus injection of glycerine into a major muscle causes heme-induced renal injury. […] Male Sprague-Dawley rats weighing approximately 275 g were dehydrated overnight (16 h) after having baseline serum creatinine determined. On the following morning, 1.25 ml of either polynitroxide albumin and TEMPOL (10 g/dl) or albumin (10 g/dl) was given via tail vein injection. Immediately following the injection, an IM injection of glycerol (50w in water v/v, 10 ml/Kg) was given, ½ of the dose into each anterior thigh muscle. Two hours after the first injection another identical dose was given via tail vein injection. Referring to FIG. 43, for the next 10 days, survival and serum creatinine were monitored.

[2] = Activation of TOPS by nitroxide-labelled proteins (ESR); assay type: biochemical; details: 50 mM TOPS, sodium phosphate buffer pH 7.8, 2 min
Text: FIGS. 18B, 18C, and 18D are ESR spectra showing activation of TOPS by three different nitroxide-labelled human proteins. FIGS. 18B and 18D show TOPS activation by albumin labelled with different species of nitroxide. FIG. 18C is nitroxide-labelled hemoglobin-based oxygen carrier.
As noted herein, the donor/acceptor relationship between two nitroxide containing species provides the ability for sustained nitroxide protection in vivo. The interaction of PNA and TPL as described with several of the embodiments is only one example of additional combinations provided by the invention. […] Thus, as referred to elsewhere herein, the multiple component embodiments may be formulated with different nitroxides or nitroxide-based compounds with different free-electron stabilities.

conscious rats = assay: Mean arterial pressure response in conscious rats
[3] = mean ± S.E.M., 24 hours of reperfusion

Q: What does the source list for PNA?
A: surviving fraction of V79 cells [1]: 2%; neurological deficit (CD-1 mice; PNA 0.5% v/w before ischemia or immediately after reperfusion, 24 hrs post-reperfusion): significantly reduces; hemisphere enlargement (CD-1 mice; treated at the onset of reperfusion): 3.056%; infarct volume (CD-1 mice; treated before the onset of ischemia, 24 hrs post-reperfusion): 6.956 mm^3; infarct volume (CD-1 mice; treated immediately after reperfusion, 24 hrs post-reperfusion): 13.710 mm^3; % infarction (CD-1 mice; treated immediately post-reperfusion): 9.210%; hemisphere enlargement (CD-1 mice; treated pre-ischemia): 0.094%; % infarction (CD-1 mice; treated pre-ischemia): 5.148%; protection against infarction (mouse; FIG. 32A): essentially complete protection; Neurological Deficit Score (mouse; mean rank of deficits, 24 hours of reperfusion): 2.0; % Hemisphere Enlargement (mouse; [3]): 1.7 ± 0.9%; % infarction (mouse; [3]): 1.9 ± 1.9%; glycerol-induced renal injury (Sprague-Dawley rats): reduce glycerol-induced renal injury; activation of TOPS (ESR peak intensity) [2]: substantially greater peak intensity; vasodilatory effect (conscious rats; 10% v/v top load, PNA 5 g/dl, TPL 100 mM): no significant vasodilatory effect; antihypertensive effect when injected alone with HBOC (conscious rats; conscious rats): no antihypertensive effect
